Measurements from publication PMC6774396 (Frontiers in Immunology, 2019).
Ends that are not written are not given here. * marks the point of attachment. Biotin = O=C1N[C@H]2[C@H](CS[C@H]2CCCCC(=O)*)N1

Tested on: Human FERM domain of moesin (residues 1–297)
Assay: SPR competition of soluble L-selectin tail peptides against chip-immobilized L-selectin tail/moesin FERM complex
Conditions: biotinylated peptide immobilized on streptavidin chip, 5 μM moesin FERM in HBS-P pH 7.4, 25°C

## biotinylated NPP: N-terminally biotinylated human L-selectin tail peptide (conjugated to Arg-356), immobilized on streptavidin chip (Biotin-RRLKKGKKSKRSMNDPY)
  complex formation with moesin FERM: stable complex
